The list shows a part of the results, in another mix than the full data. Some of these compounds have results that are not shown, active ones among them. Calls of active or inactive are those of the source.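 The calls were made as follows: active = GFP response versus DMSO above a set limit, roughly screen mean plus 3 SD (cut at about 180% in these data); inconclusive = fewer than 70 cells counted for a yeast strain; inactive = the rest.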

For 24 compounds, GFP response vs DMSO results are on record in PubChem BioAssay AID2016 (NMMLSC, 2009).

This experiment is described as follows: modulators of MEP2-GFP levels in yeast, primary screen, S. cerevisiae, multiplex flow cytometry, MLPCN library (AID 2016).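 Also: median GFP fluorescence of the barcode-gated MEP2-GFP cells per well.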 Conditions: S. cerevisiae MEP2-GFP strain, 3 h, at 10 µM, stronger effect = higher value, 100% = DMSO control level.
Consider `CN(C)c1ccc(C(=O)NCC2(N(C)C)CCCCC2)cc1`, for which the GFP response vs DMSO is inactive: 111%.

As to `CN(C)C1CCCC1OC(=O)C(O)(c1ccccc1)c1ccccc1` (centres undefined), the GFP response vs DMSO was inactive: 98.9%.

As to `Cc1ccccc1C(=O)NCC1(N2CCCCC2)CCCCC1`, the GFP response vs DMSO was inactive: 95.2%.

With `O=C(NCC1(N2CCCCC2)CCCCC1)c1cccc(Br)c1`, the GFP response vs DMSO is inactive: 107%.

As for `CCN1CCCC(OC(=O)C2(O)c3ccccc3C=Cc3ccccc32)C1` (centres undefined), the GFP response vs DMSO is inactive: 94.7%.

Consider `Cc1cc(C(=O)NCC2(N3CCCCC3)CCCCC2)ccc1[N+](=O)[O-]`, for which the GFP response vs DMSO is active: 254% [may fluoresce violet].

For `COc1ccc(C(=O)NCC2(N(C)C)CCCCC2)cc1`, the GFP response vs DMSO is inactive: 105%.

In the case of `O=C(NCC1(N2CCCCC2)CCCCC1)c1cc(F)c(F)cc1Cl`, the GFP response vs DMSO is inactive: 101%.

Consider `C=CCN1CCN(CCOC(=O)C(O)(c2ccccc2)c2ccccc2)CC1`, for which the GFP response vs DMSO was inactive: 100%.

As to `CN1[C@@H]2CC[C@H]1CC(OC(=O)C(O)(c1ccccc1)c1ccccc1)C2` (some centres undefined), the GFP response vs DMSO was inactive: 110%.

As for `O=C(NCC1(N2CCCCC2)CCCCC1)c1cc([N+](=O)[O-])ccc1Cl`, the GFP response vs DMSO is inactive: 110%.

In the case of `Cc1ccc(C(=O)NCC2(N3CCCCC3)CCCCC2)cc1`, the GFP response vs DMSO is inactive: 108%.

Regarding `CC(C)N1C(=O)CC2(CCN(CCOC(=O)C(O)(c3ccccc3)c3ccccc3)CC2)C1=O`, the GFP response vs DMSO is inactive: 96.2%.

Consider `COc1cc(SC)ccc1C(=O)NCC1(N(C)C)CCCCC1`, for which the GFP response vs DMSO is inactive: 100%.

In the case of `CCN(CC)CC(C)C(C)OC(=O)C(O)(c1ccccc1)c1ccccc1` (centres undefined), the GFP response vs DMSO was inactive: 102%.

As for `O=C(OC1CN2CCC1CC2)C(CO)(c1ccccc1)c1ccccc1` (centres undefined), the GFP response vs DMSO was inactive: 106%.

Take `CN(C)c1cccc(C(=O)NCC2(N(C)C)CCCCC2)c1`: the GFP response vs DMSO is inactive: 101%.

With `CC(C)Oc1ccc(C(=O)NCC2(N(C)C)CCCCC2)cc1`, the GFP response vs DMSO is inactive: 103%.

For `COc1ccc(Br)c(C(=O)NCC2(N3CCCCC3)CCCCC2)c1`, the GFP response vs DMSO is inactive: 99.6%.

On to `COc1cc(C(=O)NCC2(N(C)C)CCCCC2)c([N+](=O)[O-])cc1OC`, for which the GFP response vs DMSO was inactive: 92.6%.

Take `CN(C)C1(CNC(=O)c2ccc(Br)cc2)CCCCC1`: the GFP response vs DMSO is inactive: 94.3%.

As to `O=C(NCC1(N2CCCCC2)CCCCC1)c1cccc(Cl)c1`, the GFP response vs DMSO is inactive: 106%.

In the case of `COc1ccc(Cl)cc1C(=O)NCC1(N(C)C)CCCCC1`, the GFP response vs DMSO was inactive: 104%.

With `COc1cccc(C(=O)NCC2(N3CCCCC3)CCCCC2)c1`, the GFP response vs DMSO was inactive: 93.3%.
